Test results: PubChem BioAssay AID463141 (The Scripps Research Institute Molecular Screening Center, 2010)
The entries are a selection whose mix differs from that of the whole data set. Active and inactive are the calls of the source.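 The calls were made as follows: active = activation above the mean of all tested compounds plus 3 SD (cut at about 21% in these data); inactive = the rest.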

Sequences of proteins named here, by UniProt entry; tags and fusion partners are left off.
UniProt P42574, whole entry D9A/D28A/D175A: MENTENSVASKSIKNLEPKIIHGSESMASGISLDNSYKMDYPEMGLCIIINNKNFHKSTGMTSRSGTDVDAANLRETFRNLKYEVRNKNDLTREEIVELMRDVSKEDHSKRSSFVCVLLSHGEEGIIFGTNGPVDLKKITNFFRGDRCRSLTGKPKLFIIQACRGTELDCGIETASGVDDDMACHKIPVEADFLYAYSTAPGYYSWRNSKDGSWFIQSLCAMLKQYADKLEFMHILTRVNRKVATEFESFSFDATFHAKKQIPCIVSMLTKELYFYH

What follows are molecules tested against Caspase-3 (Homo sapiens) (UniProt P42574) (assay: activators of human procaspase-3 D3A mutant, primary screen, biochemical, absorbance, PC-3 D3A mutant, single concentration (AID 463141;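 also: 0% = DMSO alone and 100% = DMSO wells spiked with extra 5 µM PC-3 D3A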)). Details: recombinant procaspase-3 D3A, Ac-DEVD-pNA absorbance 405 nm; at 8.5 µM; stronger effect = higher value.

SMILES | activation
Cc1cc(C)cc(OP(C)(N)=O)c1 (stereo not given) | inactive: -3.66%
CCOC(=O)c1ccc(NP(C)(=O)Oc2ccccc2)cc1 (stereo not given) | inactive: 14.2%
Cc1ccc(NP(C)(=O)Oc2ccccc2)c(C)c1 (stereo not given) | inactive: 6.91%
COc1ccccc1OP(C)(=O)Nc1ccc(C)cc1 (stereo not given) | inactive: -2.99%
COc1ccccc1OP(C)(=O)Nc1ccccc1 (stereo not given) | inactive: 0.37%
CP(=O)(Nc1ccccc1Br)Oc1ccccc1 (stereo not given) | inactive: 11.6%
CP(=S)(Nn1cnnc1)Oc1ccccc1 (stereo not given) | inactive: -24.2%
Cc1cc(C)cc(OP(C)(=O)Nc2ccc(SC(F)(F)F)cc2)c1 (stereo not given) | inactive: 1.14%
CP(=O)(NC(=O)Nc1ccccc1)Oc1ccccc1 (stereo not given) | inactive: 2.95%
CCc1ccc(OP(C)(=O)N2CCN(c3ccc([N+](=O)[O-])cc3)CC2)cc1 (stereo not given) | inactive: -7.32%
CP(=O)(Oc1ccccc1)OC(c1ccccc1)C(F)(F)F (stereo not given) | inactive: 2%
Cc1cccc(C)c1OP(C)(=O)Nc1ccc(SC(F)(F)F)cc1 (stereo not given) | inactive: -10.8%
CP(=O)(Nc1ccc(SC(F)(F)F)cc1)Oc1ccc(Cl)cc1 (stereo not given) | inactive: -5.05%
CP(=O)(Nc1ccccn1)Oc1ccc(Cl)cc1 (stereo not given) | inactive: 1.44%
CCOP(C)(=S)SCC(=O)NC(C)C(=O)O (stereo not given) | inactive: -0.36%
CCOC(=O)c1ccc(NP(C)(=O)Oc2ccc(OC)cc2)cc1 (stereo not given) | inactive: 5.55%
O=[N+]([O-])c1cc([N+](=O)[O-])c(O)c([N+](=O)[O-])c1.c1ccc(Oc2ccncc2)cc1 | inactive: -10.9%
O=[N+]([O-])c1cc([N+](=O)[O-])c(-n2nnc3ccccc32)c([N+](=O)[O-])c1 | inactive: -0.6%

SMILES | activation
Cc1nc2ccc3ccccc3c2s1.O=[N+]([O-])c1cc([N+](=O)[O-])c(O)c([N+](=O)[O-])c1 | inactive: -14.5%
O=[N+]([O-])c1cc([N+](=O)[O-])c(-c2cnn(-c3ccccc3)c2)c([N+](=O)[O-])c1 | inactive: 3.37%
CCOC(=O)C(CC)C1=NC(C)(C)Cc2ccccc21.O=[N+]([O-])c1cc([N+](=O)[O-])c(O)c([N+](=O)[O-])c1 (stereo not given) | inactive: 2.38%
CC1=C2N=C(C=C3N=C(C(C)=C4[N-][C@@](C)([C@@H]5N=C1[C@](C)(CCC(=O)NC[C@@H](C)OP(=O)([O-])O[C@H]1[C@@H](O)[C@@H](n6cnc7cc(C)c(C)cc76)O[C@@H]1CO)[C@H]5CC(N)=O)[C@@](C)(CC(N)=O)[C@@H]4CCC(N)=O)[C@@](C)(CC(N)=O)[C@@H]3CCC(N)=O)C(C)(C)[C@@H]2CCC(N)=O.[C-]#N.[Co+3] | inactive: -12%
O=[N+]([O-])c1cc([N+](=O)[O-])c(Nc2nnnn2CCO)c([N+](=O)[O-])c1 | inactive: -5.95%
CCCOc1ccc(NP(C)(=O)Oc2ccc(Cl)cc2)cc1 (stereo not given) | inactive: 3.77%
CP(=O)(Nc1ccc(SC(F)(F)F)cc1)Oc1ccccc1 (stereo not given) | inactive: -0.64%
COc1ccccc1OP(C)(=O)Nc1c(C)cccc1C (stereo not given) | inactive: 4.3%
CN1CCCCC1COC(=O)C1(O)c2ccccc2CCc2ccccc21 (stereo not given) | inactive: 8.4%
O=C(O)c1cccc(Nc2c([N+](=O)[O-])cc([N+](=O)[O-])cc2[N+](=O)[O-])c1 | inactive: 4.13%
CC1=NCCc2c1[nH]c1ccccc21.O=[N+]([O-])c1cc([N+](=O)[O-])c(O)c([N+](=O)[O-])c1 | inactive: 3.54%
Cc1cc(C)cc(OP(C)(=O)Nc2ccc(C)cc2C)c1 (stereo not given) | inactive: -4.03%
CCOC(=O)c1ccc(NP(C)(=O)Oc2cc(C)cc(C)c2)cc1 (stereo not given) | inactive: 2.77%
COc1ccccc1OP(C)(=O)Nc1cccc(Br)c1 (stereo not given) | inactive: 4.93%
Cc1cc(C)cc(OP(C)(=O)Nc2ccccn2)c1 (stereo not given) | inactive: 6.05%
CP(=O)(Nc1cccc(Br)c1)Oc1ccccc1 (stereo not given) | inactive: 8.71%
Cc1ccc(C)c(NP(C)(=O)Oc2ccccc2)c1 (stereo not given) | inactive: -8.01%
